Assay results reported in patent publication US11918770B2, “Implants for localized drug delivery and methods of use thereof” (The Regents of the University of California, priority 2014, dated 2024).

Protein sequences, listed by entry. Tags and fused reporters are not part of them.
UniProt P03372, whole entry: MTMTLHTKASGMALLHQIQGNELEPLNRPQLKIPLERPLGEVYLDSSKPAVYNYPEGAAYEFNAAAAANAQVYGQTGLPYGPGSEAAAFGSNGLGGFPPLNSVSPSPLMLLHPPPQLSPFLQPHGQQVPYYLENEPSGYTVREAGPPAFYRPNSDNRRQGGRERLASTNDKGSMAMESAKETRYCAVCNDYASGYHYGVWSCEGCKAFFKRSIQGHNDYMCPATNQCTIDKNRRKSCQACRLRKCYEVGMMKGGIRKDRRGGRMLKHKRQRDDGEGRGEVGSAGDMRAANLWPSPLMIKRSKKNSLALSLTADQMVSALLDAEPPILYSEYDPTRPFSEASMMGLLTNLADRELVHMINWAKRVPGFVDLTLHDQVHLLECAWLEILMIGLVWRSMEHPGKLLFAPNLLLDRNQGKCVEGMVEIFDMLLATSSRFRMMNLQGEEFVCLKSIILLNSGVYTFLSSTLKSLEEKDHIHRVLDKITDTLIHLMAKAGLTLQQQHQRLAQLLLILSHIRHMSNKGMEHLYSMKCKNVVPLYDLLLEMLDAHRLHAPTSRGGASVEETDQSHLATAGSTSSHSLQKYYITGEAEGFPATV

Target: estrogen receptor (ER) (Homo sapiens, UniProt P03372)
Assay: Western blot for ER and PR expression in MCF7 cells
Assay type: cell-based
Details: fulvestrant released from Silastic tubing
Description: Each sealed (10 cm) tube was immersed into a 10 cm culture tube containing 5 mL culture media (Dulbecco's Modified Eagle's medium (DMEM)+10% fetal bovine serum (FBS)+penicillin and streptomycin) approximating interstitial tissue surrounding the breast tissue. These tubes were set on a rocker in an incubator at 37° C. for 1, 2, 5, 10, 15, 21 and 30 days. After each time point media was collected and stored at −80° C. for further analysis for western blotting, viability/proliferation assay by MTS (3-(4,5-dimethylthiazol-2-yl)-5-(3-carboxymethoxyphenyl)-2-(4-sulfophenyl)-2H-tetrazolium) and quantitation by liquid chromatography-tandem mass spectrometry (LC-MS/MS). Additional iteration was to perform repeated washes on the same sealed tube and collect the culture medium at days 1, 2, 5, 10, 15, 21, and 30.
MCF-7 culture were propagated and seeded in 6 cm dishes at 300,000 cells per dish and allowed to adhere overnight as a monolayer. […] The drug concentrations and biological effects of the drug eluted from specific tubes were evaluated by Mass spectroscopy, Western Blot analysis and antiproliferative methods after exposure for 3 days.
The medium was then used to culture MCF7 cells for 72 h, and the cells were assayed for proliferation by MTS assay (Panel A) and harvested for protein and western blotted for ER and PR expression (Panel B).

C[C@]12CC[C@@H]3c4ccc(O)cc4C[C@@H](CCCCCCCCC[S+]([O-])CCCC(F)(F)C(F)(F)F)[C@H]3[C@@H]1CC[C@@H]2O (some centres unmarked) [fulvestrant]
duration of sustained drug release sufficient to inhibit ER and PR expression (daily washout, medium harvested every 24 hours): at least 28 days | duration of ER inhibition / down-regulation of ER expression (MCF7 cells): > 12 weeks
